# Earlier results as cited in patent US11173146B2, “Selective activators of the intermediate conductance CA2+activated K+ channel KCa3.1 and their methods of use” (The Regents of the University of California, priority 2014, dated 2021).
# Tested on: voltage-gated sodium (NaV) channels
# Settings: literature; cited from earlier work
smiles,measurement,value
"Nc1nc2c(ccc3ccccc32)s1 [SKA-31, naphtho[1,2-d]thiazol-2-ylamine]",concentrations that inhibit/affect NaV channels,≥ 25 µM
